According to US11123316B2, “Imaging composition and uses thereof” (The University of Melbourne, priority 2014, dated 2021):

Tests used:
[1] = test system: HER2-positive tumour (LS174T colorectal tumour model); assay: Comparative micro-PET imaging of HER2-positive tumour (LS174T); assay type: in vivo, mice; details: 24 hours, FIGS. 2 and 3
Method: A comparative study was also undertaken to compare the efficacy of a compound of the present invention (specifically, ^89Zr(DFO-squarate-trastuzumab)) as a tumour imaging agent, with two other imaging agents (^89Zr(DFO-maleimide-trastuzumab) and ^9ZrCl). The ^89Zr(DFO-maleimide-trastuzumab) was prepared by dissolving a 50-fold excess of DFO-maleimide in water, and adding it to trastuzumab (Herceptin) in PBS buffer. Unreacted DFO-maleimide was removed by spin filtration and the purified conjugate was radiolabelled with ^89Zr(ox)4 as described above for DFO-squarate.
Mice with HER2 positive tumours were injected with two doses of a solution containing either ^89Zr(DFO-squarate-trastuzumab), ^89Zr(DFO-maleimide-rastuzumab) or ^89ZrCl, in 20 mM PBS (pH 7) with 5% sodium gentisate (200 μL, 6.0 MBq each). PET images were taken at intervals of 22 hours, 46 hours, 94 hours and 8 days post administration in respect of the ^89Zr(DFO-squarate-trastuzumab)-treated mouse, and at 24 hours for the ^89Zr(DFO-maleimide-trastuzumab)- and ^89ZrCl-treated mice (see FIGS. 1, 2 and 3, respectively).

[2] = test system: HER2-positive tumour (BT474 breast carcinoma model); assay: Micro-PET imaging of BT474 tumour-bearing mice, Study 1; assay type: in vivo
BT474 tumour = assay: Mouse PET imaging (BT474), Study 2; assay type: in vivo, NOD/SCID mice
LS174T tumour = assay: Mouse PET imaging (LS174T); assay type: in vivo, BALB/c nude mice
Method: Three doses (7.5 MBq each) were drawn up from the purified mAb solution and administered to LS174T tumour bearing BALB/c nude mice. PET imaging was performed at 24, 48 and 96 hours. Mice were harvested at 96 hours for biodistribution data.

^89Zr(DFO-maleimide-trastuzumab): ^89Zr-labelled conjugate of DFO-maleimide with trastuzumab (Herceptin), comparison imaging agent
Distribution of the radionuclide in PET images [1]: significant distribution of the radionuclide

^89Zr-DFOSq-trastuzumab: ^89Zr-labelled conjugate of DFO-squaramide (DFOSq) with trastuzumab (Herceptin)
Tumour maximum standardised uptake value (SUVmax) ([2]; Mouse 1, 22 h post administration): 10.76 | Tumour maximum standardised uptake value (SUVmax) ([2]; Mouse 1, 46 h post administration): 16.17 | Tumour maximum standardised uptake value (SUVmax) ([2]; Mouse 1, 94 h post administration): 21.97 | Tumour maximum standardised uptake value (SUVmax) ([2]; Mouse 1, 8 d post administration): 31.73 | Tumour maximum standardised uptake value (SUVmax) ([2]; Mouse 2, 22 h post administration): 11.62 | Tumour maximum standardised uptake value (SUVmax) ([2]; Mouse 2, 46 h post administration): 16.24 | Tumour maximum standardised uptake value (SUVmax) ([2]; Mouse 2, 94 h post administration): 25.79 | Tumour maximum standardised uptake value (SUVmax) ([2]; Mouse 2, 8 d post administration): 37.21 | Tumour maximum standardised uptake value (SUV) (BT474 tumour; Mouse ID #3, 24 h): 8.7 | Tumour maximum standardised uptake value (SUV) (BT474 tumour; Mouse ID #5, 48 h): 14.4 | Tumour maximum standardised uptake value (SUV) (BT474 tumour; Mouse ID #6, 48 h): 12.9 | Tumour maximum standardised uptake value (SUV) (BT474 tumour; Mouse ID #6, 96 h): 9.9 | Tumour maximum standardised uptake value (SUV) (BT474 tumour; Mouse ID #7, 24 h): 9.5 | Tumour maximum standardised uptake value (SUV) (BT474 tumour; Mouse ID #7, 96 h): 9.1 | Tumour standardised uptake value (LS174T tumour; Mouse 5, 24 h): 3.10 | Tumour standardised uptake value (LS174T tumour; Mouse 5, 48 h): 3.70 | Tumour standardised uptake value (LS174T tumour; Mouse 5, 96 h): 4.72 | Tumour standardised uptake value (LS174T tumour; Mouse 6, 24 h): 3.32 | Tumour standardised uptake value (LS174T tumour; Mouse 6, 48 h): 3.73 | Tumour standardised uptake value (LS174T tumour; Mouse 6, 96 h): 5.32 | Tumour standardised uptake value (LS174T tumour; Mouse 7, 24 h): 3.07 | Tumour standardised uptake value (LS174T tumour; Mouse 7, 48 h): 4.04 | Tumour standardised uptake value (LS174T tumour; Mouse 7, 96 h): 5.65
